# AlphaSeq binding of Ab-91 heavy chain variants to a spike HR2 peptide

Data: MIT Lincoln Laboratory AlphaSeq set, Engelhart et al. 2022, doi:10.1038/s41597-022-01779-4, as distributed in FLAb.

Antigen: PDVDLGDISGINAS, a 14-residue peptide of the SARS-CoV-2 spike HR2 region.

Parent: Ab-91, a human scFv built as VL, three GGGGS repeats, VH. Only the CDRs of the heavy chain vary.
VL: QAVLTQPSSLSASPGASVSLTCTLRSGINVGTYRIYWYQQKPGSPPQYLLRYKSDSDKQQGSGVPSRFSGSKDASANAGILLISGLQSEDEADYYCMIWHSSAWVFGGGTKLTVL
VH: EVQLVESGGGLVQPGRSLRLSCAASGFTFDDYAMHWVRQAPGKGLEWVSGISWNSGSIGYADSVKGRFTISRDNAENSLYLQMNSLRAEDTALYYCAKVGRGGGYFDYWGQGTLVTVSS

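The starting antibody came from a phage panning campaign against this peptide. Variants in AAYL51 differ from the parent at up to three CDR positions; double and triple changes were sampled at random. The assay is AlphaSeq: two haploid yeast populations carry antibody and antigen on their surface. After mating in shaken culture at 30 °C for 16 h, diploids were selected and their barcode pairs sequenced. Scores were corrected for input abundance and mapped to Kd with protein pairs of known affinity run in the same pool. The assay was run in three technical replicates.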

Variants are written as CDR1, CDR2 and CDR3 of the heavy chain (limits as in the source). Parent: GFTFDDYAMH, GISWNSGSIGYADSVK, VGRGGGYFDY. All variants listed here change Y32 of the VH, counted from its first residue. Values are apparent Kd, the geometric mean of the replicates that gave a signal; lower means stronger binding. "nd" marks a missing value. The strain was present, yet no cells mated with the target were sequenced in any replicate, which points to weak or no binding. Empty control strains, which show no peptide, gave a signal in 21% of pairings with library AAYL51; the median was 34 µM and 95% of these signals were weaker than 1.8 µM. No background was subtracted. For each scFv, signals with the empty controls are counted beside the result.

For GRTFDDQAMH / GISWNSGSIGYADSVK / VGRGGGYFDI, the assay gave nd (0 of 3 replicates; controls 3 of 9). Variant GFTFDDVAYH / GISWNSGSIGYADSVK / VGRGGGYFDY gave 19 µM (1 of 3 replicates; controls 4 of 9). For GFTFDDVAMH / YISWNSGSIGYADSVK / VGRGGWYFDY, the assay gave 940 nM (1 of 3 replicates; controls 1 of 9). Variant GFTFDDTAMH / QISWNSGKIGYADSVK / VGRGGGYFDY showed nd (0 of 3 replicates; controls 0 of 9). With GFTFDDTAMH / GISWKSGSIGYADSVK / VGRGGGYFGY the result was 88 µM (2 of 3 replicates; controls 5 of 9). Variant MFTFDDVAMH / GISWNSGSIGYADSVK / VGRGGGYFDY gave nd (0 of 3 replicates; controls 2 of 9). With VFTFDDQAMH / GISWNSGSIGYAVSVK / VGRGGGYFDY the result was nd (0 of 3 replicates; controls 0 of 9). With GFTFDDIASH / GISWNSRSIGYADSVK / VGRGGGYFDY the result was 30 µM (2 of 3 replicates; controls 2 of 9). With GFTFDDMAMH / GISWNSGSIGYADSCK / VGRGGGYFDY the result was 9.4 µM (3 of 3 replicates; controls 8 of 9).

Variant GFTFHDVAMH / GISWNSGSIGYADSVK / VGRGGGVFDY gave 4.8 µM (3 of 3 replicates; controls 3 of 9). Variant GFKFDDLAMH / GISWNSGSIGYADSVK / VGRLGGYFDY gave nd (0 of 3 replicates; controls 1 of 9). For GFTFDDSAMH / GISWNSGSIGYADSVK / VARGGGYFFY, the assay gave 1.6 µM (1 of 3 replicates; controls 0 of 9). Variant EFTFDDDAMH / GISWNSGSIGYADSVK / VGRGGGYWDY showed 160 µM (1 of 3 replicates; controls 5 of 9). With GFTFDDCAMH / GISWNSGSIGYADSVK / VGRGGGYFDY the result was nd (0 of 3 replicates; controls 0 of 9). Variant GFTFDDIAMH / GESWNSGSIGYADSVK / VGRGGGYCDY showed 84 µM (1 of 3 replicates; controls 2 of 9). Variant GFTFGDDAMH / GISWDSGSIGYADSVK / VGRGGGYFDY gave nd (0 of 3 replicates; controls 0 of 9). For GFTFDDCSMH / GISWNSGSIGYADSVL / VGRGGGYFDY, the assay gave 2.5 µM (3 of 3 replicates; controls 2 of 9). For GFTFDDTGMH / GISWNSGSDGYADSVK / VGRGGGYFDY, the assay gave 200 nM (3 of 3 replicates; controls 1 of 9).

Variant GFTFDDWAMH / GWSWNSGSIGYADSVK / VGRGGGYFDY gave 57 µM (1 of 3 replicates; controls 0 of 9). For YFCFDDGAMH / GISWNSGSIGYADSVK / VGRGGGYFDY, the assay gave 130 µM (2 of 3 replicates; controls 2 of 9). For GFTFDDFAMI / GISWNSGSIGYADSVK / VGRGGSYFDY, the assay gave 5.1 nM (3 of 3 replicates; controls 7 of 9). With GFTFDDCAMH / GISWNSGSIGYADSVK / KGRGGGYFDD the result was 130 µM (1 of 3 replicates; controls 2 of 9). With GFTFDVHAMH / GISWNSGSIGYADSVK / VMRGGGYFDY the result was 16 µM (1 of 3 replicates; controls 3 of 9). Variant GFTIDDRAMH / GTSWNSGSIGYADSVK / VGRGGGYFDY gave nd (0 of 3 replicates; controls 0 of 9). Variant GFTFDDKAMH / GISWNSGSIGYAPSVQ / VGRGGGYFDY showed 48 µM (1 of 3 replicates; controls 3 of 9). Variant GFTFDDCFMH / GISWNSGSIGYADSMK / VGRGGGYFDY gave 680 µM (1 of 3 replicates; controls 2 of 9). For GFTFDDMAMH / GIIWNSGSIGYADSVK / VGRGGGYFPY, the assay gave nd (0 of 3 replicates; controls 0 of 9).

Variant GFKHDDEAMH / GISWNSGSIGYADSVK / VGRGGGYFDY showed nd (0 of 3 replicates; controls 0 of 9). For GFHFDDKAMH / WISWNSGSIGYADSVK / VGRGGGYFDY, the assay gave 110 µM (1 of 3 replicates; controls 2 of 9). Variant GFTFDDCAMH / HISWNSGSIGWADSVK / VGRGGGYFDY gave 2.7 µM (1 of 3 replicates; controls 1 of 9). With GFTFDDKAMH / GMSWNSGSIGYADPVK / VGRGGGYFDY the result was 55 µM (2 of 3 replicates; controls 1 of 9). For GFTFDDFAMH / GIHWNSGSIGYADSVK / VGRGGGFFDY, the assay gave nd (0 of 3 replicates; controls 1 of 9). With GFTFDDNAMH / GISWNSGSIGYADSVQ / VGRFGGYFDY the result was 7.3 µM (3 of 3 replicates; controls 1 of 9). Variant GFTFDDIAMH / GISWNSGSIGYADSVK / VGRGGGRFRY gave nd (0 of 3 replicates; controls 2 of 9). With GFTFDDRAHH / GISWNSGSILYADSVK / VGRGGGYFDY the result was nd (0 of 3 replicates; controls 0 of 9). With GFTFTDPAMH / GISWNSGSIGYADSVK / VGREGGYFDY the result was 380 pM (3 of 3 replicates; controls 4 of 9).

With GHTFDDRAMH / TISWNSGSIGYADSVK / VGRGGGYFDY the result was nd (0 of 3 replicates; controls 1 of 9). Variant GFTFDDAAME / GISWNSGSIGYADSVK / VGRGGLYFDY gave 38 µM (3 of 3 replicates; controls 7 of 9). For EFTFDDVAMH / GISWNSGSIGYADSVK / VGRGGGYCDY, the assay gave 8.1 µM (1 of 3 replicates; controls 2 of 9). With GFTRDDAAMH / GISWNSGSIGYADSVK / VGRGGGYFDY the result was 88 µM (1 of 3 replicates; controls 1 of 9). Variant GFTFDDWAMH / GISWNSGQIGYADSVK / VGRGGGYFDY showed 3.9 µM (2 of 3 replicates; controls 2 of 9). For GFTFDDPAMH / GISWNSGSIGYADSVD / VGRGYGYFDY, the assay gave 11 µM (2 of 3 replicates; controls 5 of 9). With GFTFDDQAMH / GISWNSGSIGYADSVK / VGRGGLYFDY the result was nd (0 of 3 replicates; controls 0 of 9). For GFTFDDDAMH / GISWNSGSIGYADIVK / IGRGGGYFDY, the assay gave 3.6 µM (1 of 3 replicates; controls 0 of 9). For GFHFDDHAMH / GISWNSGSGGYADSVK / VGRGGGYFDY, the assay gave 36 µM (2 of 3 replicates; controls 2 of 9).

Repeated from above, the 6 best binders with a signal in all replicates:

| CDR-H1 | CDR-H2 | CDR-H3 | apparent Kd | seen in | control signals |
|---|---|---|---|---|---|
| GFTFTDPAMH | GISWNSGSIGYADSVK | VGREGGYFDY | 380 pM | 3/3 | 4/9 |
| GFTFDDFAMI | GISWNSGSIGYADSVK | VGRGGSYFDY | 5.1 nM | 3/3 | 7/9 |
| GFTFDDTGMH | GISWNSGSDGYADSVK | VGRGGGYFDY | 200 nM | 3/3 | 1/9 |
| GFTFDDCSMH | GISWNSGSIGYADSVL | VGRGGGYFDY | 2.5 µM | 3/3 | 2/9 |
| GFTFHDVAMH | GISWNSGSIGYADSVK | VGRGGGVFDY | 4.8 µM | 3/3 | 3/9 |
| GFTFDDNAMH | GISWNSGSIGYADSVQ | VGRFGGYFDY | 7.3 µM | 3/3 | 1/9 |